Laboratory results published in ChEMBL document CHEMBL4376885 (J Med Chem, 2020).

Protein sequences, listed by entry. Tags and fused reporters are not part of them. Lines headed by an entry give the natural chain unless they say otherwise; changes in a name come on top.
UniProt P05177, whole entry: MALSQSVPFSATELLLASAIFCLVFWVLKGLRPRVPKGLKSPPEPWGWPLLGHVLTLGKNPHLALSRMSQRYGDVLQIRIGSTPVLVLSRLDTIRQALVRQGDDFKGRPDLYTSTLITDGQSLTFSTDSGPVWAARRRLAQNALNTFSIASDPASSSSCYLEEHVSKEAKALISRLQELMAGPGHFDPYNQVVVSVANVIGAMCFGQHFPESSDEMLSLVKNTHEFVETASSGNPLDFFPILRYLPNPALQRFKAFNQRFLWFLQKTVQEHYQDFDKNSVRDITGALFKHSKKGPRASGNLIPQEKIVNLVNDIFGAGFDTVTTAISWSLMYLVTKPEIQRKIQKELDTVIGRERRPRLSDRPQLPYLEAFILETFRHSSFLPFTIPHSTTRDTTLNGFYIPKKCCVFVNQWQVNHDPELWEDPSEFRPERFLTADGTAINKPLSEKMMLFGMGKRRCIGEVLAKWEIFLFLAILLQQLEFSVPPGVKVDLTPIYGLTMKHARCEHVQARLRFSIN
UniProt P11712, whole entry: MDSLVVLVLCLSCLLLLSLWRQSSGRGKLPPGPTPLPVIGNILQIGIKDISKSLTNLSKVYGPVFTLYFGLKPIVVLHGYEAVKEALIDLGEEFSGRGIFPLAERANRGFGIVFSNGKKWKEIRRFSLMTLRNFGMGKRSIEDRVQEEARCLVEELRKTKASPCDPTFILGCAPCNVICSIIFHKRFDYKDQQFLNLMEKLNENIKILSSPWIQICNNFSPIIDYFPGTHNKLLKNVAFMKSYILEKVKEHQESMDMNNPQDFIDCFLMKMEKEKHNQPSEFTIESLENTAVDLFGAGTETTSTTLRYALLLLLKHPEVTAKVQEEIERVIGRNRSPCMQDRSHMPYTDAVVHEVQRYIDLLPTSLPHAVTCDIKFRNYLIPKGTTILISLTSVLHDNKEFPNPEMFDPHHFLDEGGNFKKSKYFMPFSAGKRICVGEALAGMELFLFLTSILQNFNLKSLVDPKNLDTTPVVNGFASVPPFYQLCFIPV
UniProt P33261, whole entry: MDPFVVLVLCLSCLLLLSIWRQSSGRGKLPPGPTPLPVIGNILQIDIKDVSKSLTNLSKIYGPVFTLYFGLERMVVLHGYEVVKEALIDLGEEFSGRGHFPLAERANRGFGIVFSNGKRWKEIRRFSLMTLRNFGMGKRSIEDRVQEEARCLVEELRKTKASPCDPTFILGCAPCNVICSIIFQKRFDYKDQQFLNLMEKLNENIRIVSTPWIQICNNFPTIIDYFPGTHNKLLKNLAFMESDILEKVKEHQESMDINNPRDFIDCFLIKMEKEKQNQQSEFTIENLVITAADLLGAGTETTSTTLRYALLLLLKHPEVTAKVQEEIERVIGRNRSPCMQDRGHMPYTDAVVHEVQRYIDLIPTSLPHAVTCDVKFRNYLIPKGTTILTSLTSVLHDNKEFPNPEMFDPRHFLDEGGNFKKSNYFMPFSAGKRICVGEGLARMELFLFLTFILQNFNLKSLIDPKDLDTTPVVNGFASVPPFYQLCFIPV
UniProt P08684, whole entry: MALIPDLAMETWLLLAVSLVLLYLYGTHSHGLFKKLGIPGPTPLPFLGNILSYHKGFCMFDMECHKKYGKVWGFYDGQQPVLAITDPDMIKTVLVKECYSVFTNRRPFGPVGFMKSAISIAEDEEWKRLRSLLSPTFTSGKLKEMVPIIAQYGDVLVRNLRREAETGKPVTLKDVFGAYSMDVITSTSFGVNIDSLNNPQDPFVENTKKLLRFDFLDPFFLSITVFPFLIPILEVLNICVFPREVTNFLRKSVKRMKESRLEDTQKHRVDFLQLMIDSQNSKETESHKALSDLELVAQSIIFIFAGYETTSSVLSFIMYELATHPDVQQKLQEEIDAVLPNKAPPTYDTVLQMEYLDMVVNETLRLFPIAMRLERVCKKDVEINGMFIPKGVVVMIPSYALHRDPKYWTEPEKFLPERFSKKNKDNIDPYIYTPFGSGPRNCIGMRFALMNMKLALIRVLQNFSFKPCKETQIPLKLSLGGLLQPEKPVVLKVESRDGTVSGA
UniProt Q12809: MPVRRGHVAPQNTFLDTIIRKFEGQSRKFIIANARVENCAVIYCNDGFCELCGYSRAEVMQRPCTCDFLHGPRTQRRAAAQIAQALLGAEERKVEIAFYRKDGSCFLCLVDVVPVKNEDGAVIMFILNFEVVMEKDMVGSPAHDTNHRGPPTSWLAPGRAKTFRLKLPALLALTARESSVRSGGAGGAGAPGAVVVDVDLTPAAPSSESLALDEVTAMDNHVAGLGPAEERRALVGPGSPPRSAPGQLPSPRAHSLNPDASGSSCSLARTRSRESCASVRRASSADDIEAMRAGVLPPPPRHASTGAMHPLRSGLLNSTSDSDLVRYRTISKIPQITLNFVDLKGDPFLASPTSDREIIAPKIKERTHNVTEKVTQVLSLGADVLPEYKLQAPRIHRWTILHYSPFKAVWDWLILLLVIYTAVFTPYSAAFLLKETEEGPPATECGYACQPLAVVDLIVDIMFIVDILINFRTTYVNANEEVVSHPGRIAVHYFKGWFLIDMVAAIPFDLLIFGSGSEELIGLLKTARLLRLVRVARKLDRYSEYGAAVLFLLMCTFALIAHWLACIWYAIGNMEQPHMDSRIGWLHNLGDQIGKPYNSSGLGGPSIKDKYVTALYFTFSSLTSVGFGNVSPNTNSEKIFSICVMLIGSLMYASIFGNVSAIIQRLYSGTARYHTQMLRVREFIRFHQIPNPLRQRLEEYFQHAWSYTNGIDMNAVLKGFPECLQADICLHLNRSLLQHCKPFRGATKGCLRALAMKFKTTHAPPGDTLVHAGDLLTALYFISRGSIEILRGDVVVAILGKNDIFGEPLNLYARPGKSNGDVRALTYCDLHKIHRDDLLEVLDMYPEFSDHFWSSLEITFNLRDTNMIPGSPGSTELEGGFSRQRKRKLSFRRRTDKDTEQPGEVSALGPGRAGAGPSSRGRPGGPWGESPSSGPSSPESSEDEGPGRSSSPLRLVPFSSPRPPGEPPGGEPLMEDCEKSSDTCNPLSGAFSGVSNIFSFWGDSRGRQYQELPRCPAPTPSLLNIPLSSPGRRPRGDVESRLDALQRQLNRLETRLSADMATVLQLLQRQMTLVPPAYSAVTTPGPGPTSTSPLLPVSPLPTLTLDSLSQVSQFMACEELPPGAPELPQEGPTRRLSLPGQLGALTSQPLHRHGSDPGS

Columns and labels:
MT4 = experiment: (§1) Cytotoxicity in mock-infected human MT4 cells assessed as reduction in cell viability incubated for 5 days by MTT assay; format: ADME, cell-based; settings: mt4, 120 h
Cytochrome P450 1A2 = Cytochrome P450 1A2 (Homo sapiens, UniProt P05177)
Cytochrome P450 2C9 = Cytochrome P450 2C9 (Homo sapiens, UniProt P11712)
Cytochrome P450 2C19 = Cytochrome P450 2C19 (Homo sapiens, UniProt P33261)
Cytochrome P450 3A4 = Cytochrome P450 3A4 (Homo sapiens, UniProt P08684)
[1] = target: Voltage-gated inwardly rectifying potassium channel KCNH2 (Homo sapiens, UniProt Q12809)
in vivo [2] = settings: Wistar, rat, iv, 2 mg/kg
in vivo [3] = settings: Wistar, rat, po, 10 mg/kg
in vivo [4] = settings: Kunming, mouse, iv, 2 mg/kg
in vivo [5] = settings: Kunming, mouse, po, 10 mg/kg
in vivo [6] = settings: Wistar, rat, iv, 2 mg/kg; remark: listed apart in the source
in vivo [7] = experiment: in vivo
in vivo [8] = settings: Kunming, mouse, iv, 2 mg/kg; remark: listed apart in the source
in vivo [9] = settings: Wistar, rat, iv, 2 mg/kg; remark: listed apart in the source
in vivo [10] = settings: Wistar, rat, po, 10 mg/kg; remark: listed apart in the source
in vivo [11] = settings: Kunming, mouse, iv, 2 mg/kg; remark: listed apart in the source
in vivo [12] = settings: Kunming, mouse, po, 10 mg/kg; remark: listed apart in the source
in vivo [13] = experiment: in vivo; remark: listed apart in the source
in vivo [14] = settings: Kunming, mouse, iv, 2 mg/kg; remark: listed apart in the source
in vivo [15] = settings: Kunming, mouse, iv, 2 mg/kg; remark: listed apart in the source
in vivo [16] = settings: Wistar, rat, iv, 2 mg/kg; remark: listed apart in the source
in vivo [17] = settings: Kunming, mouse, iv, 2 mg/kg; remark: listed apart in the source
[18] = as §1; format: ADME, cell-based; settings: mock-infected MT4 cells

**Q.** With `Cc1cc(C#N)cc(C)c1Oc1nc(Nc2ccc(C#N)cc2C(F)(F)F)nc2sccc12` as the compound, how does the CC50 (MT4) read?
**A.** The CC50 was over 268 µM.

**Q.** Which CC50 (MT4) does the source give for `Cc1cc(C#N)cc(C)c1Oc1nc(Nc2ccc(C#N)c(F)c2)nc2sccc12` here?
**A.** Its CC50 is over 300 µM.

**Q.** For `Cc1cc(/C=C/C#N)cc(C)c1Oc1nc(Nc2ccc(C#N)c(F)c2)nc2ccsc12`, which CC50 (MT4) is on record?
**A.** The CC50 was 155 µM.

**Q.** And the IC50 (Cytochrome P450 1A2)?
**A.** The IC50 was over 50 µM.

**Q.** What about the IC50 (Cytochrome P450 2C9) of the same compound?
**A.** Its IC50 is 1.99 µM.

**Q.** What about the IC50 (Cytochrome P450 2C19) of the same compound?
**A.** Its IC50 is 5.85 µM.

**Q.** What about the IC50 (Cytochrome P450 3A4) of the same compound?
**A.** The IC50 was over 50 µM.

**Q.** And the IC50 [1]?
**A.** Its IC50 is over 30 µM.

**Q.** And the half-life (in vivo [2])?
**A.** The half-life was 0.89 h.

**Q.** What about the half-life (in vivo [3]) of the same compound?
**A.** Its half-life is 8.82 h.

**Q.** What about the half-life (in vivo [4]) of the same compound?
**A.** The half-life was 4.67 h.

**Q.** And the half-life (in vivo [5])?
**A.** The half-life was 6.38 h.

**Q.** And the Cmax (in vivo [6])?
**A.** Its Cmax is 269 µg/mL.

**Q.** What about the Cmax (in vivo [7]) of the same compound?
**A.** Its Cmax is 9.72 µg/mL.

**Q.** What about the Cmax (in vivo [8]) of the same compound?
**A.** Its Cmax is 186 µg/mL.

**Q.** What about the AUC(0-t) (in vivo [9]) of the same compound?
**A.** The AUC(0-t) was 88100 ng·h/mL.

**Q.** And the AUC(0-t) (in vivo [10])?
**A.** The AUC(0-t) was 25800 ng·h/mL.

**Q.** What about the AUC(0-t) (in vivo [11]) of the same compound?
**A.** The AUC(0-t) was 4680 ng·h/mL.

**Q.** And the AUC(0-t) (in vivo [12])?
**A.** Its AUC(0-t) is 1240 ng·h/mL.

**Q.** And the AUC(0-inf) (in vivo [13])?
**A.** The AUC(0-inf) was 27900 ng·h/mL.

**Q.** And the AUC(0-inf) (in vivo [14])?
**A.** The AUC(0-inf) was 4720 ng·h/mL.

**Q.** And the clearance (in vivo [15])?
**A.** Its clearance is 7 mL/min/kg.

**Q.** And the Vd (in vivo [16])?
**A.** Its Vd is 0.29 L/kg.

**Q.** And the Vd (in vivo [17])?
**A.** Its Vd is 0.38 L/kg.

**Q.** Which CC50 (MT4) does the source give for `Cc1cc(C#N)cc(C)c1Oc1nc(Nc2ccc(C#N)c(F)c2)nc2c1COC2` here?
**A.** The CC50 was over 312 µM.

**Q.** Which CC50 (MT4) does the source give for `Cc1cc(C#N)cc(C)c1Oc1nc(Nc2ccc(C#N)c(F)c2)nc2c1CSC2` here?
**A.** The CC50 was over 300 µM.

**Q.** With `Cc1cc(C#N)cc(C)c1Oc1ccnc(Nc2ccc(C#N)c(F)c2)n1` as the compound, how does the CC50 (MT4) read?
**A.** The CC50 was over 348 µM.

**Q.** Which CC50 (MT4) does the source give for `Cc1cc(C#N)cc(C)c1Oc1nc(Nc2ccc(C#N)c(F)c2)nc2ncsc12` here?
**A.** The CC50 was 125 µM.

**Q.** For `Cc1cc(C#N)cc(C)c1Oc1nc(Nc2ccc(C#N)c(F)c2)nc2ccsc12`, which CC50 (MT4) is on record?
**A.** Its CC50 is over 300 µM.

**Q.** For `Cc1cc(/C=C/C#N)cc(C)c1Oc1nc(Nc2ccc(C#N)c(F)c2F)nc2ccsc12`, which CC50 (MT4) is on record?
**A.** Its CC50 is 102 µM.

**Q.** For `Cc1cc(C#N)cc(C)c1Oc1nc(Nc2ccc(C#N)c(F)c2)nc2c1CCC2`, which CC50 (MT4) is on record?
**A.** The CC50 was over 313 µM.

**Q.** With `Cc1cc(C#N)cc(C)c1Oc1nc(Nc2ccc(C#N)cc2C(F)(F)F)nc2ccsc12` as the compound, how does the CC50 (MT4) read?
**A.** Its CC50 is 237 µM.

**Q.** With `Cc1cc(/C=C/C#N)cc(C)c1Oc1nc(Nc2ccc(C#N)c(C(F)(F)F)c2)nc2sccc12` as the compound, how does the CC50 (MT4) read?
**A.** The CC50 was 193 µM.

**Q.** Which CC50 (MT4) does the source give for `Cc1cc(C#N)cc(C)c1Oc1nc(Nc2ccc(C#N)c(F)c2)nc2c1SCC2` here?
**A.** The CC50 was 226 µM.

**Q.** With `Cc1cc(C#N)cc(C)c1Oc1nc(Nc2ccc(C#N)c(F)c2)nc2c1CCCC2` as the compound, how does the CC50 (MT4) read?
**A.** The CC50 was 173 µM.

**Q.** What does the source list for `Cc1cc(/C=C/C#N)cc(C)c1Oc1nc(Nc2ccc(C#N)cc2F)nc2sccc12`?
**A.** CC50 (MT4): 264 µM; IC50 [1]: 0.18 µM

**Q.** With `Cc1cc(/C=C/C#N)cc(C)c1Oc1nc(Nc2ccc(C#N)cc2C(F)(F)F)nc2sccc12` as the compound, how does the CC50 (MT4) read?
**A.** Its CC50 is over 254 µM.

**Q.** With `Cc1cc(/C=C/C#N)cc(C)c1Oc1nc(Nc2ccc(C#N)c(F)c2)nc2sccc12` as the compound, how does the CC50 (MT4) read?
**A.** Its CC50 is 262 µM.

**Q.** With `Cc1cc(C#N)cc(C)c1Oc1nc(Nc2ccc(C#N)c(F)c2)nc2cccc(F)c12` as the compound, how does the CC50 (MT4) read?
**A.** Its CC50 is 171 µM.

**Q.** With `Cc1cc(C#N)cc(C)c1Oc1nc(Nc2ccc(C#N)c(C(F)(F)F)c2)nc2ccsc12` as the compound, how does the CC50 (MT4) read?
**A.** The CC50 was 255 µM.

**Q.** With `Cc1cc(C#N)cc(C)c1Oc1nc(Nc2ccc(C#N)cc2F)nc2sccc12` as the compound, how does the CC50 (MT4) read?
**A.** Its CC50 is over 300 µM.

**Q.** For `Cc1cc(C#N)cc(C)c1Oc1nc(Nc2ccc(C#N)c(C(F)(F)F)c2)nc2sccc12`, which CC50 (MT4) is on record?
**A.** The CC50 was over 268 µM.

**Q.** With `Cc1cc(C#N)cc(C)c1Oc1cc(Cl)nc(Nc2ccc(C#N)c(F)c2)n1` as the compound, how does the CC50 (MT4) read?
**A.** Its CC50 is 245 µM.

**Q.** With `Cc1cc(C#N)cc(C)c1Oc1nc(Nc2ccc(C#N)c(F)c2)nc2scnc12` as the compound, how does the CC50 (MT4) read?
**A.** Its CC50 is 176 µM.

**Q.** With `Cc1cc(C#N)cc(C)c1Oc1nc(Nc2ccc(C#N)cc2F)nc2ccsc12` as the compound, how does the CC50 (MT4) read?
**A.** The CC50 was over 300 µM.

**Q.** With `Cc1cc(C#N)cc(C)c1Oc1nc(Nc2ccc(C#N)c(F)c2F)nc2ccsc12` as the compound, how does the CC50 (MT4) read?
**A.** Its CC50 is over 288 µM.

**Q.** Which CC50 (MT4) does the source give for `Cc1cc(/C=C/C#N)cc(C)c1Oc1nc(Nc2ccc(C#N)cc2F)nc2ccsc12` here?
**A.** Its CC50 is 216 µM.

**Q.** With `Cc1cc(/C=C/C#N)cc(C)c1Oc1nc(Nc2ccc(C#N)cc2C(F)(F)F)nc2ccsc12` as the compound, how does the CC50 (MT4) read?
**A.** Its CC50 is 198 µM.

**Q.** For `Cc1cc(/C=C/C#N)cc(C)c1Oc1nc(Nc2ccc(C#N)c(C(F)(F)F)c2)nc2ccsc12`, which CC50 (MT4) is on record?
**A.** The CC50 was 238 µM.

**Q.** With `Cc1cc(/C=C/C#N)cc(C)c1Oc1nc(Nc2ccc(C#N)c(F)c2F)nc2sccc12` as the compound, how does the CC50 (MT4) read?
**A.** Its CC50 is 240 µM.

**Q.** With `Cc1cc(C#N)cc(C)c1Oc1nc(Nc2ccc(C#N)c(F)c2)nc2cc[nH]c12` as the compound, how does the CC50 (MT4) read?
**A.** Its CC50 is 5.98 µM.

**Q.** Which CC50 (MT4) does the source give for `Cc1cc(C#N)cc(C)c1Oc1nc(Nc2ccc(C#N)c(F)c2)nc2ccccc12` here?
**A.** Its CC50 is 197 µM.

**Q.** For `Cc1cc(C#N)cc(C)c1Oc1nc(Nc2ccc(C#N)c(F)c2F)nc2sccc12`, which CC50 (MT4) is on record?
**A.** Its CC50 is over 288 µM.

**Q.** With `Cc1cc(C#N)cc(C)c1Oc1nc(Nc2ccc(C#N)cc2)nc(N)c1Br` [ETRAVIRINE] as the compound, how does the CC50 at 120 h [18] read?
**A.** The CC50 at 120 h was 4.58 to 4.59 µM.
